The list shows a part of the results, in another mix than the full data. Activity calls are given as the source filed them.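 The calls were made as follows: active = inhibition above the campaign mean plus 3 SD, with each screening campaign given its own cutoff (cut at about 60% in these data); inactive = the rest.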
target: Nuclear receptor coactivator 1 (Homo sapiens) (UniProt Q15788); assay: SRC1 coactivator transcriptional activity inhibitors, primary screen, cell-based, luminescence (AID 588354); settings: HEK293 GAL4-SRC1 luciferase reporter, at 3.6 µM, active compounds read high;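 also: 0% = DMSO treated cells and 100% = gossypol at 36 µM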

By UniProt entry, the sequences of proteins in these tests, tags left out. Where a name states a change or a piece, a line headed by the entry shows the natural chain unless it says otherwise.
UniProt Q15788: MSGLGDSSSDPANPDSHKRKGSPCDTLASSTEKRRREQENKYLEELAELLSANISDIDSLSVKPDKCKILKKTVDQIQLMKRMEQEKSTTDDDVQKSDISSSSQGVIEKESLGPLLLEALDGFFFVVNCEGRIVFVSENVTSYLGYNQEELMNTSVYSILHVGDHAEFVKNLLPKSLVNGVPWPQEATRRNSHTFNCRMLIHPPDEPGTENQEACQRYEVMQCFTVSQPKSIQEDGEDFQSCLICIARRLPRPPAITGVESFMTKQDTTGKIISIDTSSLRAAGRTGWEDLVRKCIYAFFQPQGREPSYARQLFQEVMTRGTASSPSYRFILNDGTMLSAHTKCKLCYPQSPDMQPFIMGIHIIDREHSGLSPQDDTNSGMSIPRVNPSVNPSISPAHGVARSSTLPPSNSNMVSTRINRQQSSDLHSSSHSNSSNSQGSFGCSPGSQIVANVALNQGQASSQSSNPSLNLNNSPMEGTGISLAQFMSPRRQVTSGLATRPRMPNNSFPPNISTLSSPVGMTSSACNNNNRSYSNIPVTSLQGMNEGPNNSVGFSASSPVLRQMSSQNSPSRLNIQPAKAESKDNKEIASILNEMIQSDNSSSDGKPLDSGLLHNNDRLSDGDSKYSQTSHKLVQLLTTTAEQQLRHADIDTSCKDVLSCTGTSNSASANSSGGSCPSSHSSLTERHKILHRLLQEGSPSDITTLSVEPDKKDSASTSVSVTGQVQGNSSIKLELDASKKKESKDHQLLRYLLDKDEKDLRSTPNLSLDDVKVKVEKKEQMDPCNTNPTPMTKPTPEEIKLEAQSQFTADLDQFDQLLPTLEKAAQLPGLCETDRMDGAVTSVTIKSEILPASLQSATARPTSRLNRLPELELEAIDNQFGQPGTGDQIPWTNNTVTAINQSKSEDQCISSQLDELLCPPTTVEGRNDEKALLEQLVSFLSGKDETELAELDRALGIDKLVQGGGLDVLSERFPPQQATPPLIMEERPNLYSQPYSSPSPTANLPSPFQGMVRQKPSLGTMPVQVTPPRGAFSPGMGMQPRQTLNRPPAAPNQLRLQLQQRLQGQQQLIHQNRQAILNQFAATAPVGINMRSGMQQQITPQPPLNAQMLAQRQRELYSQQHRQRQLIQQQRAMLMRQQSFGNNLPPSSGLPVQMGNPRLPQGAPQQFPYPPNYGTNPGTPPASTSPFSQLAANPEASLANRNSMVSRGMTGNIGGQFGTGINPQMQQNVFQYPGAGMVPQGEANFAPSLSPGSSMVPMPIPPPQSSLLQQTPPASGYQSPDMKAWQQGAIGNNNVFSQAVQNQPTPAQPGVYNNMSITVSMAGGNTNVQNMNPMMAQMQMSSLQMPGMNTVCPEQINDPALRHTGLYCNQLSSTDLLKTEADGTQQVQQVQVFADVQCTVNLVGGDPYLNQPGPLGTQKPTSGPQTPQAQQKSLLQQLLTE

| SMILES | inhibition |
| --- | --- |
| Cc1ccccc1CN(C)C(=O)COC(=O)C(O)(c1ccccc1)c1ccccc1 | inactive: -3.84% |
| CCc1cc(O)c([N+](=O)[O-])c(C)c1[N+](=O)[O-] | inactive: 2.51% |
| CC(C)(C)C(=O)NC(Sc1ccccc1)C(Cl)(Cl)Cl (centres undefined) | inactive: 6.28% |
| CCOc1ccc(C2=NCC(CBr)S2)cc1 (centres undefined) | inactive: 2.32% |
| O=P1(Nc2nc3ccc(Cl)cc3s2)COc2ccccc2O1 (centres undefined) | inactive: -26% |
| O=[N+]([O-])C1C(O)C(O)C([N+](=O)[O-])C(O)C1O (centres undefined) | inactive: -0.97% |
| CC(C)CC(=O)NC(Sc1ccc(Cl)cc1)C(Cl)(Cl)Cl (centres undefined) | inactive: -10.9% |
| Nc1cc(N)c2nonc2c1[N+](=O)[O-] | inactive: 4.31% |
| O=C(NC(Sc1ccncn1)C(Cl)(Cl)Cl)c1ccccc1 (centres undefined) | inactive: 5.23% |
| Oc1ccccc1CNc1ccccn1 | inactive: 5.24% |
| Cc1ccc(OP(=O)(Nc2nccs2)Oc2ccc(C)cc2)cc1 | inactive: 8.4% |
| COc1ccccc1OP(=O)(Nc1ccc(C)cn1)Oc1ccccc1OC | inactive: -3.34% |
| Clc1ccc(Cl)c(NC2=NCC(CBr)S2)c1 (centres undefined) | inactive: -22.5% |
| CN1CCCC(OC(=O)C(c2ccccc2)c2ccccc2)C1 (centres undefined) | inactive: 2.41% |
| NC(=O)c1cc([N+](=O)[O-])cc([N+](=O)[O-])c1N | inactive: 4.23% |
| Cc1ccc(N/C(=N/P(=O)(N2CCOCC2)N2CCOCC2)N2CCOCC2)cc1 | inactive: -14.1% |
| CN(C(=O)Cc1ccc(Cl)c(Cl)c1)[C@H]1CCCC[C@H]1N1CCCC1 | inactive: 7.39% |
| CCN(N=Nc1nonc1N)c1nonc1N | inactive: 17.6% |
| Nc1cccc2ccc([As](=O)(O)O)cc12 | inactive: 2.94% |
| Cc1ccc(NP(=O)(Oc2ccccc2F)Oc2ccccc2F)nc1 | inactive: 1.97% |
| CN(C(=O)Cc1ccc(Cl)c(Cl)c1)[C@H]1CCCC[C@@H]1N1CCCC1 | inactive: 4.2% |
| CCOP(=O)(Nc1ccccc1)OCC | inactive: 2.84% |
| Cc1cc(SC(NC(=O)c2ccc(F)cc2)C(Cl)(Cl)Cl)ncn1 (centres undefined) | inactive: 0.58% |
| CCCC1OP(N)(=O)OCC1CC (centres undefined) | inactive: -0.4% |
| O=C(O)c1ccccc1[As](=O)(O)O | inactive: 12.4% |

| SMILES | inhibition |
| --- | --- |
| CC(=O)Nc1ccc([As](=O)(O)O)cc1 | inactive: 16.9% |
| CN(C)P(=O)(N(C)C)n1c(Nc2ccccc2)nnc1-c1ccccc1 | inactive: -92.8% |
| O=P(Nc1nc2ccc(Cl)cc2s1)(c1ccccc1)c1ccccc1 | inactive: -4.5% |
| O=[N+]([O-])c1cccc(NC2=NCC(CBr)S2)c1 (centres undefined) | inactive: 13.5% |
| COC(=O)C1(C)COP(=O)(Nc2ccccc2)OC1 (centres undefined) | inactive: 1.57% |
| O=C(O)CNc1ccc([As](=O)(O)O)cc1 | inactive: 2.8% |
| CC(C)(C)C(=O)NC(Sc1ccncn1)C(Cl)(Cl)Cl (centres undefined) | inactive: 8.16% |
| O=[N+]([O-])c1ncn(CCn2ncnc2[N+](=O)[O-])n1 | inactive: -7.06% |
| O=C(Nc1cc([As](=O)(O)O)ccc1O)c1ccccc1 | inactive: -20.2% |
| O=P1(N(CCCl)CCCl)OCCCS1 (centres undefined) | inactive: 9.45% |
| CN(C)C(=O)OCCc1n(C)cc[n+]1C | inactive: 16.7% |
| CC(C)=N/N=C(\N)N[N+](=O)[O-] | inactive: 0.4% |
| CC(C)c1nc(Nc2ccccc2)n(P(=O)(N(C)C)N(C)C)n1 | inactive: 7.22% |
| c1cc(-c2nn[nH]n2)ccc1-c1nn[nH]n1 | inactive: -3.27% |
| CC1CCN(C(=O)Oc2c(Cl)cc(Cl)c3cccnc23)CC1 | inactive: -12.5% |
| C[N+]1=C2C=CC=CC=C2SC12C([N+](=O)[O-])=CC([N+](=O)[O-])=C[C-]2[N+](=O)[O-] (centres undefined) | inactive: -70.3% |
| Nc1ccc([As](=O)(O)c2ccc(N)cc2)cc1 | inactive: -16.6% |
| CCN(/C(=N/P(=O)(N1CCOCC1)N1CCOCC1)N1CCOCC1)c1ccc(OC)cc1 | inactive: 2.57% |
| O=[N+]([O-])c1cccc2n[nH]nc12 | inactive: 2.95% |
| CC(=O)N1C2C3N(C(C)=O)C1C1N(C(C)=O)C(C(N1C(C)=O)N3C(C)=O)N2C(C)=O | inactive: -4.43% |
| CCc1nc2c(n1)c1c(non1O)c1c2no[n+]1[O-] | inactive: -21.1% |
| O=[N+]([O-])c1cc([N+](=O)[O-])c(CCNc2ccccc2)c([N+](=O)[O-])c1 | inactive: -14.5% |
| Cc1ccc(NP(=O)(Oc2ccccc2)Oc2ccccc2)nc1 | inactive: 5.11% |
| COc1ccc(C2=NCC(CBr)S2)cc1 (centres undefined) | inactive: 2.37% |

Source: PubChem BioAssay AID588354 (The Scripps Research Institute Molecular Screening Center, 2011)
